The source of these data is patent US20200138827A1, “SMALL MOLECULE MODULATORS OF HUMAN STING” (Curadev Pharma Limited, priority 2017, published 2020).

Amino acid sequences for entries named in this document (tags omitted).
UniProt Q86WV6, whole entry H232R: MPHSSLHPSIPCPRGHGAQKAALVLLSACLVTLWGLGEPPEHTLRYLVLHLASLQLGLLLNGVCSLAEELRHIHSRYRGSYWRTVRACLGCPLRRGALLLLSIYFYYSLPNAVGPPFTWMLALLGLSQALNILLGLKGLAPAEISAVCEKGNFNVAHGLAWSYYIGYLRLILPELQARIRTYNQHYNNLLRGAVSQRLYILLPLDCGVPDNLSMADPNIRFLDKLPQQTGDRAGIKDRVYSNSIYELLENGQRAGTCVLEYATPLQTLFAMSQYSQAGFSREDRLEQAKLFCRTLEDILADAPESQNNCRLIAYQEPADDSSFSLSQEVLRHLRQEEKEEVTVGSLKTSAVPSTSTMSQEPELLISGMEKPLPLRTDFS
UniProt Q86WV6, whole entry R71H/G230A/H232R/R293Q: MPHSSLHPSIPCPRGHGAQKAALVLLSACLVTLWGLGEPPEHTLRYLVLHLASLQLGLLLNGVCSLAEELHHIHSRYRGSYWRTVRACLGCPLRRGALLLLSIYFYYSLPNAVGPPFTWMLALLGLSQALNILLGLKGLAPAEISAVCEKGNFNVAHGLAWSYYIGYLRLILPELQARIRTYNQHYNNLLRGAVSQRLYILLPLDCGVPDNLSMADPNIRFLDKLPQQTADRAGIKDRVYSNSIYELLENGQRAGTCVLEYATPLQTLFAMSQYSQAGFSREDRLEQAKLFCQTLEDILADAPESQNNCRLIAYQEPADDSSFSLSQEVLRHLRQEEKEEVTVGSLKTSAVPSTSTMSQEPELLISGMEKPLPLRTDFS

Common to all, as to assay type: cell-based
One assay concerns the target T1, WT/R232 STING protein (Homo sapiens, UniProt Q86WV6, H232R).
T1 construct: host or cells: HEK293T
Put plainly: Luciferase reporter assay in HEK293T-hSTING-Luciferase cells, WT/R232. As to conditions: 20 hr stimulation, read-out: R232 Activity (EC50 range).

A further assay addresses T2, hSTING(HAQ) (Homo sapiens, UniProt Q86WV6, G230A/H232R/R293Q/R71H).
T2 construct: host or cells: HEK293T
Put plainly: Luciferase reporter assay in HEK293T-hSTING-Luciferase cells, HAQ polymorph. As to conditions: 20 hr stimulation, read-out: HAQ activity (EC50 range).

Another assay addresses T3, hSTING(H232) (Homo sapiens, UniProt Q86WV6).
T3 construct: host or cells: HEK293T
Briefly: Luciferase reporter assay in HEK293T-hSTING-Luciferase cells, H232 polymorph. Conditions: 20 hr stimulation, read-out: H232 activity (EC50 range). In general terms: A reporter such as luciferase makes a cellular process visible.

SMILES strings stand for the structures. Bounds are passed on as bounds.

The EC50 is the concentration that produces a half-maximal response.

In the case of `CC1(CCl)Sc2ccc(C(=O)NCc3ccc(F)cc3F)cc2N(Cc2c(F)cccc2Cl)C1=O` (stereo not drawn) [Example 150, 4-(2-chloro-6-fluorobenzyl)-2-(chloromethyl)-N-(2,4-difluorobenzyl)-2-methyl-3-oxo-3,4-dihydro-2H-benzo[b][1,4] thiazine-6-carboxamide], the EC50 was < 1000 nM on WT/R232 STING protein, 1000 to 10000 nM at hSTING(HAQ) and 1000 to 10000 nM on hSTING(H232).
